{"source": "paper PMC5320394", "about": "“Development of a Novel Formulation That Improves Preclinical Bioavailability of Tenofovir Disoproxil Fumarate” (Journal of Pharmaceutical Sciences, 2017)", "key": {"Caco-2 cell monolayers": {"system": "Caco-2 cell monolayers", "details": "1 mM BNPP, 1 mM PP, 0.05% wt/vol EM1, 0.5 mg/mL TPGS, 10 μM CsA, 2 μM GF918"}, "[1]": {"details": "rat, in vivo"}}}
{"substance": "D-a-tocopheryl polyethylene glycol 1000 succinate [TPGS]", "values": [{"measurement": "Fold Increase, TDF (A to B transport)", "setting": "Caco-2 cell monolayers; Caco-2, versus no inhibitor", "value": 1.8, "unit": "fold"}, {"measurement": "Fold Increase, TFV Family (A to B transport)", "setting": "Caco-2 cell monolayers; Caco-2, versus no inhibitor", "value": 1.7, "unit": "fold"}, {"measurement": "% Measured Basolateral, TDF (median), with inhibitor(s)", "setting": "Caco-2 cell monolayers; Caco-2 A to B, 10 μM, 120 min", "value": 1.45, "unit": "%"}, {"measurement": "% Measured Basolateral, TNF (median), with inhibitor(s)", "setting": "Caco-2 cell monolayers; Caco-2 A to B, 10 μM, 120 min", "value": 0.30, "unit": "%"}, {"measurement": "% Measured Basolateral, TNF-ME (median), with inhibitor(s)", "setting": "Caco-2 cell monolayers; Caco-2 A to B, 10 μM, 120 min", "value": 1.27, "unit": "%"}, {"measurement": "Fraction of IV (bioavailability), with inhibitor(s)", "setting": "[1]", "value": 47.5, "unit": "%"}]}
